# Literature values, collected in patent US5807671A (priority 1995, dated 1998).
# Tested on: "atypical" BuChE
# Details: cited from earlier work
smiles,measurement,setting,value
CCOP(=O)(OCC)SCC[N+](C)(C)C,"IC50, higher for ""atypical"" than wild-type BuChE","""atypical"" vs wild type",at least 10 fold
same,"Ki, higher for ""atypical"" than wild-type BuChE","""atypical"" vs wild type",at least 10 fold
same,sensitivity of the atypical variant to inhibitors,in contrast to the normal enzyme,much less sensitive
